# Ab-95 light chain CDR variants: yeast mating affinities

From the AlphaSeq antibody data of Engelhart et al. 2022 (doi:10.1038/s41597-022-01779-4), copy in the FLAb collection.

Antigen: PDVDLGDISGINAS, a 14-residue peptide of the SARS-CoV-2 spike HR2 region.

Ab-95 is the parent antibody, in scFv form: VH, then three GGGGS repeats, then VL. The heavy chain is unchanged in all variants.
VH: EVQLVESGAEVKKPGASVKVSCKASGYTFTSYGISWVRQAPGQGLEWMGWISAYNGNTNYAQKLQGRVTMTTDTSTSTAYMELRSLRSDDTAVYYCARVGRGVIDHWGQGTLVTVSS
VL: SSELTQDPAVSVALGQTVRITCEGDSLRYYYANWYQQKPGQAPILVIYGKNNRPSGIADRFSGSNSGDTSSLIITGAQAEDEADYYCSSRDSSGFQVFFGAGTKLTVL

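The parent was found by panning a naive human phage display library on the peptide. Variants in AAYL52 differ from the parent at up to three CDR positions; double and triple changes were sampled at random. In AlphaSeq, yeast of one mating type display the scFv and yeast of the other type display the target. The frequency of each diploid, read from paired DNA barcodes, reflects how well the two displayed proteins bind. The ratio of observed to expected reads was calibrated, replicate by replicate, on BCL2-family standards whose Kd was known from biolayer interferometry. There are three technical replicates.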

The whole VL of each variant is written out. This list gathers variants with a substitution at F98 (VL, numbered from residue 1). Each Kd is an estimate from the mating assay, the geometric mean of the replicates in which the pair was seen; lower is stronger. "not detected" means that the variant was in the library but no mating with the target was seen in any replicate; the authors take this as a sign of poor binding, and no number exists. Background: pairings of library AAYL52 with three empty control strains gave a value in 28% of cases (median 8.2 µM, 5th percentile 800 nM). Values in that range, when seen in few replicates, are hard to tell from nonspecific mating. Parent in this assay: reference entry 200 nM, copy in this library 180 nM.

VL,apparent Kd,detected
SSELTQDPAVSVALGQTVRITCEGDSLRYYNANWYQQKPGQAPILVIYGKNNRPSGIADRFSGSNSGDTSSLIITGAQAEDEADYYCSSRDSSAFQVQFGAGTKLTVL,not detected,0 of 3
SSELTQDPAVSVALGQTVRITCEGDSLRYYYANWYQQKPGQAPILVIYGKNNRPSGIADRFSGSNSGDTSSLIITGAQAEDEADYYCESRDSSGFQVAFGAGTKLTVL,14 µM,2 of 3
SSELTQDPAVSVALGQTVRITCEGDSLRYYYANWYQQKPGQAPILVIYGKQNRPSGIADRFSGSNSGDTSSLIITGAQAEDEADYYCASRDSSGFQVYFGAGTKLTVL,1.2 µM,3 of 3
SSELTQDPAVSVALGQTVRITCEGDSLRYYYANWYQQKPGQAPILVIYGKNNRPSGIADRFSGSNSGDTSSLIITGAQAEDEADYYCSSRDCSGFAVEFGAGTKLTVL,9.2 µM,2 of 3
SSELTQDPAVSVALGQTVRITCDGDSLRCYYANWYQQKPGQAPILVIYGKNNRPSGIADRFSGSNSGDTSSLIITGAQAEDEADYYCSSRDSSGFQVLFGAGTKLTVL,35 µM,3 of 3
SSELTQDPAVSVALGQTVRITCEGCSLRYYYANWYQQKPGQAPILVIYGKNNRPSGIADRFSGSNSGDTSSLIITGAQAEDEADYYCSSRDSSGFQVGFGAGTKLTVL,3.8 µM,1 of 3
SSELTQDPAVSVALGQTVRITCEGDSLRYKYANWYQQKPGQAPILVIYGKNNRPSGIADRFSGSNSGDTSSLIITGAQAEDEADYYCASRDSSGFQVQFGAGTKLTVL,150 nM,3 of 3
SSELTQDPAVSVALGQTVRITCEGDSLRYYYANWYQQKPGQAPILVIYGKNNRPSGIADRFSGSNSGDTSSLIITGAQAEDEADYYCSGRDSSGFQQMFGAGTKLTVL,370 nM,3 of 3
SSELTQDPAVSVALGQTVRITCPGDSLRYYYANWYQQKPGQAPILVIYGKNNRPSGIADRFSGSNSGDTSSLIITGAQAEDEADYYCSSRDSSGFQVEFGAGTKLTVL,not detected,0 of 3
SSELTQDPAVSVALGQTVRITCEGDSLRYYYANWYQQKPGQAPILVIYGKSNRPSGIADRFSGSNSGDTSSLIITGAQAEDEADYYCSSRDSSNFQVLFGAGTKLTVL,65 µM,2 of 3
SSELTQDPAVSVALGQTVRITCEGDSLRYYYANWYQQKPGQAPILVIYGKNCRPSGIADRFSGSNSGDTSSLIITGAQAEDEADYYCSSRDSSGFQVIFGAGTKLTVL,not detected,0 of 3
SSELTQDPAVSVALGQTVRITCNGDSLRYYYANWYQQKPGQAPILVIYGKNNRPSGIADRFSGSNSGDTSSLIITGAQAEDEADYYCSSRDSSGHQVNFGAGTKLTVL,3.3 µM,1 of 3
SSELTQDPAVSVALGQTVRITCEGDSLRYYYANWYQQKPGQAPILVIYGKFNRPAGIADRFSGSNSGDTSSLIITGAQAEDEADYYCSSRDSSGFQVAFGAGTKLTVL,77 µM,1 of 3
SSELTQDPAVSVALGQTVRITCEGDSLRYYYANWYQQKPGQAPILVIYGKNNRPSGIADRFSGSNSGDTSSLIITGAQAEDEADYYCSSRDSSGFQVAFGAGTKLTVL,130 nM,3 of 3
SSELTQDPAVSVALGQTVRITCEGDSLRYYYAFWYQQKPGQAPILVIYGKNNRPSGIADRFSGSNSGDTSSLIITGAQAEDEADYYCSSRDSSGFQVAFGAGTKLTVL,150 nM,3 of 3
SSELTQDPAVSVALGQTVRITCEGDSLRYYYANWYQQKPGQAPILVIYGPNNRPSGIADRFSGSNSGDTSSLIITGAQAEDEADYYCSSRDSSGKQVAFGAGTKLTVL,730 nM,3 of 3
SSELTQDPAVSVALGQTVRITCEGDSLRYYYANWYQQKPGQAPILVIYGKSNRPSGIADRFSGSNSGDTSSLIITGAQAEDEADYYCDSRDSSGFQVGFGAGTKLTVL,4.5 µM,2 of 3
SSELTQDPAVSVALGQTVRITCEGDSLRMYYANWYQQKPGQAPILVIYGKNNRPSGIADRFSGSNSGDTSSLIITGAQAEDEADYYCSSRDSIGFQVIFGAGTKLTVL,1.8 µM,2 of 3
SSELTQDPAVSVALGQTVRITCEGDSLRYYYANWYQQKPGQAPILVIYGKMNRPSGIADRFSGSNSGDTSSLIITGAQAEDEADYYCSSRDSYGFQVTFGAGTKLTVL,290 nM,2 of 3

For reference, 2 entries of the list once more:

VL,apparent Kd,detected
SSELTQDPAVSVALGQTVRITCEGDSLRMYYANWYQQKPGQAPILVIYGKNNRPSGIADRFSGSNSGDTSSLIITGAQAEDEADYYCSSRDSIGFQVIFGAGTKLTVL,1.8 µM,2 of 3
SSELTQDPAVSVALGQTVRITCEGDSLRYYYANWYQQKPGQAPILVIYGKNNRPSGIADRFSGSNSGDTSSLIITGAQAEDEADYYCSSRDCSGFAVEFGAGTKLTVL,9.2 µM,2 of 3